Assay [1] deals with T1, Human PTH (1-34) (human, not fully specified).
T1 construct: Synthetic peptide bought from Bachem; also called hPTH (1-34); human 34mer
T1 peptide: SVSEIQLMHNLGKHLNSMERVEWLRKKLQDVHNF
The assay is described as follows: BiaCore, 25° C., 34mer. (In general: In SPR one partner is held on a chip, and binding of the other changes the refractive index at the surface.)

Assay [2] deals with T1, Human PTH (1-34). The assay is described as follows: BiaCore, 37° C., 34mer.
The target in assay [3] is T2, Human PTH (1-84) (human).
T2 construct: Synthetic peptide bought from Bachem; also called hPTH1-84; Hu 84mer
T2 peptide: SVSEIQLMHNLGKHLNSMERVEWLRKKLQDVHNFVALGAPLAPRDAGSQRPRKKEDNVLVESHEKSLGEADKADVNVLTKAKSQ
The assay is described as follows: binning of recombinant antibodies (Table 10).

Assay [4] concerns the target PTH (antigen of the kinetic study of mAb sc275). The assay is described as follows: biosensor kinetics, pH 7.4, 37 degree C., antibody held by Fc-specific capture, PTH injected, 1:1 model. On the procedure:
(§1) Each antigen concentration was injected in duplicate. Associations were monitored for one minute and dissociations were monitored for five minutes and ten minutes for the pH 7.4 and 6.0 assay, respectively. The surfaces were regenerated with a 12-second pulse of 50 mM H₃PO₄.
(§2) Finally, kinetic rate constants were determined by double referencing each data set to fit globally to a 1:1 interaction model.

The target is the same in assay [5]. The assay is described as follows: biosensor kinetics, pH 7.4, 37 degree C., antibody immobilised by amine coupling, PTH injected, 1:1 model. The method, then:
as §1, §2

For assay [6] the target is unchanged. The assay is described as follows: biosensor kinetics, pH 7.4, 37 degree C., antibody immobilised by aldehyde coupling, PTH injected, 1:1 model. The method, then: as §1, §2
Assay [7] concerns the target T2, Human PTH (1-84). The assay is described as follows: BiaCore, 37° C., 84mer.

B1: anti-PTH mAb 086 (antibody, IgG2, V domains shown)
VH: EVQLVESGGGLVKPGGSLRLSCAASGFTFSNAWMSWVRQAPGKGLEWVGRIKSKTDGGTTDYAAPVKGRFTISRDDSKKTLYLQMNSLKTEDTAVYYCTTGATFDSWGQGTLVTVSS
VL: [about 120 residues not written out]
notes: also called AB-PTH-XG2-086; well 133D2
On to B1, for which the results for the Kd in assay [1] and in assay [2] were 4.7 nM and 16.7 nM, respectively.

B2: mAb sc275 (antibody, IgG2, V domains shown)
VH: EVQLVESGGGLVKPGGSLRLSCAASGLTFSNAWMSWVRQAPGKGLEWVGRIKSKTDGGTTDYAAPVKGRFTISRDDSKNTLYLQMNSLKTEDTAVYYCTTYYFDSSGFPFDYWSQGTLVTVSS
VL: DIVMTQSPLSLPVTPGEPASISCRSSQSLLHSNGYKYLEWYLQKPGQSPQLLIYLGSNRASGVPDRFSGSGSGTDFTLKISRVEAEDVGVYYCMQTLQIPLTFGGGTKVEIK
B2: the Kd – broadly, a measure of binding affinity in units of concentration – in assay [1] turned out to be 0.2 nM; in assay [4] it was 1.9 nM; in assay [5], 2.5 nM; in assay [6], 2 nM. For the same molecule, the binding result in assay [3] is “binds”. Further, the koff (usually a measure of how fast the partners let go of each other) in assay [4] stood at 0.00093 s⁻¹; in assay [5], 0.00086 s⁻¹; in assay [6], 0.0012 s⁻¹. Moreover, the kon – broadly, the rate constant with which the complex forms – in assay [4] stood at 480000 M⁻¹ s⁻¹; in assay [5], 350000 M⁻¹ s⁻¹; in assay [6], 610000 M⁻¹ s⁻¹.

B3: anti-PTH mAb 238 (antibody, IgG2, V domains shown)
VH: EVQLVESGGGLVKPGGSLRLSCAASGLTFSNAWMSWVRQAPGKGLEWVGRIKSKSDGGTTDYAAPVKGRFTISRDDSKNTLYLQMNSLKTEDTAVYYCTTYYFDSSGFPFDYWSQGTLVTVSS
VL: DIVMTQSPLSLPVTPGEPASISCRSSQSLLHSNGYKYLEWYLQKPGQSPQLLIYLGSNRASGVPDRFSGSGSGTDFTLKISRVEAEDVGVYYCMQTLQIPLTFGGGTKVEIK
notes: also called AB-PTH-XG2-238; well 264E5
In the case of B3, the Kd was 0.6 nM in assay [1], 0.2 nM in assay [2] and 3.9 nM in assay [7].

(Values after US20060062783A1 (Amgen, published 2006).)
